# Permeability data for macrocyclic peptides

PAMPA measures passive passage through an artificial lipid membrane. Permeability is given as log10 of P in cm/s; higher (less negative) is more permeable.

SMILES	PAMPA (log10 cm/s)
CC(C)C[C@H]1NC(=O)[C@@H](C)N(C)C(=O)[C@@H]2CCCN2C(=O)[C@H](Cc2ccccc2)NC(=O)CN(Cc2ccccc2)C(=O)[C@H]2CCCN2C(=O)[C@@H](CC(C)C)NC1=O	-5.65
CC(C)C[C@H]1NC(=O)[C@@H](C)N(C)C(=O)[C@@H]2CCCN2C(=O)[C@H](Cc2ccccc2)NC(=O)CN(Cc2ccccc2)C(=O)[C@H]2CCCN2C(=O)C[C@H](Cc2ccccc2)NC1=O	-6.45
CC(C)C[C@@H]1NC(=O)C[C@H](Cc2ccccc2)NC(=O)[C@H]2CCCN2C(=O)[C@H](Cc2ccccc2)NC(=O)[C@H](CC(C)C)N(C)C(=O)[C@@H]2CCCN2C(=O)C[C@H](Cc2ccccc2)NC1=O	-5.83
CC(C)C[C@@H]1C(=O)N[C@H](CC(C)C)C(=O)N2CCC[C@H]2C(=O)N(C)[C@H](CC(C)C)C(=O)N[C@@H](Cc2ccccc2)C(=O)N[C@@H](C)C(=O)N1C	-5.22
CC(C)C[C@@H]1NC(=O)[C@@H]2CCCN2C(=O)[C@@H](CC(C)C)N(C)C(=O)[C@H](CC(C)C)NC(=O)[C@H](C)N(C)C(=O)[C@H](Cc2ccccc2)NC1=O	-4.94
CC(C)C[C@H]1NC(=O)C[C@H](Cc2ccccc2)NC(=O)[C@H]2CCCN2C(=O)[C@H](Cc2ccccc2)NC(=O)[C@H](CC(C)C)N(C)C(=O)[C@@H]2CCCN2C(=O)[C@H](CC(C)C)N(C)C1=O	-5.31
CC(C)C[C@@H]1C(=O)N[C@H](CC(C)C)C(=O)N2CCC[C@@H]2C(=O)N(Cc2ccccc2)CC(=O)N[C@@H](Cc2ccccc2)C(=O)N[C@@H](Cc2ccccc2)CC(=O)N1C	-5.48
CC(C)C[C@H]1C(=O)N(Cc2ccccc2)CC(=O)N2CCC[C@@H]2C(=O)N(Cc2ccccc2)CC(=O)N[C@@H](Cc2ccccc2)C(=O)N2CCC[C@H]2C(=O)N(C)[C@H](C)C(=O)N1C	-5.50
CC(C)C[C@@H]1NC(=O)[C@H]2CCCN2C(=O)[C@@H](CC(C)C)NC(=O)[C@H](CC(C)C)NC(=O)[C@@H](C)NC(=O)[C@H]2CCCN2C(=O)[C@H](Cc2ccccc2)NC1=O	-7.85
CC(C)C[C@@H]1NC(=O)[C@@H]2CCCN2C(=O)[C@@H](CC(C)C)N(C)C(=O)[C@@H](CC(C)C)NC(=O)C[C@H](Cc2ccccc2)NC(=O)[C@H]2CCCN2C(=O)[C@H](Cc2ccccc2)NC1=O	-5.64
CC(C)C[C@@H]1NC(=O)[C@@H](CC(C)C)NC(=O)[C@H](C)NC(=O)[C@H](Cc2ccccc2)NC(=O)[C@H](CC(C)C)N(C)C(=O)[C@H]2CCCN2C1=O	-5.30
CC(C)C[C@@H]1NC(=O)[C@H](C)NC(=O)[C@H](Cc2ccccc2)NC(=O)[C@H](CC(C)C)N(C)C(=O)[C@H]2CCCN2C(=O)[C@@H](CC(C)C)NC1=O	-6.55
CC(C)C[C@@H]1C(=O)N[C@@H](Cc2ccccc2)C(=O)N[C@H](C)C(=O)N(C)[C@@H](CC(C)C)C(=O)N[C@@H](Cc2ccccc2)CC(=O)N2CCC[C@H]2C(=O)N1C	-5.58
CC(C)C[C@@H]1NC(=O)[C@@H](CC(C)C)N(C)C(=O)[C@H](C)NC(=O)[C@@H]2CCCN2C(=O)[C@H](Cc2ccccc2)NC(=O)[C@H](CC(C)C)N(C)C(=O)[C@H]2CCCN2C1=O	-6.30
CCCN1CC(=O)N[C@@H](CC(C)C)C(=O)N[C@@H](CC(C)C)C(=O)N2CCC[C@@H]2C(=O)N(C)[C@@H](CC(C)C)C(=O)N[C@@H](Cc2ccccc2)C(=O)N2CCC[C@@H]2C1=O	-5.52
CC(C)C[C@@H]1NC(=O)[C@H](CC(C)C)N(C)C(=O)[C@H](C)NC(=O)[C@@H]2CCCN2C(=O)[C@H](Cc2ccccc2)NC(=O)[C@H](CC(C)C)N(C)C(=O)[C@H]2CCCN2C1=O	-5.28
CC(C)C[C@@H]1NC(=O)[C@H]2CCCN2C(=O)[C@@H](CC(C)C)NC(=O)[C@@H](CC(C)C)N(C)C(=O)[C@H](C)N(C)C(=O)[C@H](Cc2ccccc2)NC1=O	-5.59

Extract of 2 entries:

SMILES	PAMPA (log10 cm/s)
CC(C)C[C@@H]1NC(=O)[C@@H]2CCCN2C(=O)[C@@H](CC(C)C)N(C)C(=O)[C@H](CC(C)C)NC(=O)[C@H](C)N(C)C(=O)[C@H](Cc2ccccc2)NC1=O	-4.94
CC(C)C[C@@H]1C(=O)N[C@H](CC(C)C)C(=O)N2CCC[C@H]2C(=O)N(C)[C@H](CC(C)C)C(=O)N[C@@H](Cc2ccccc2)C(=O)N[C@@H](C)C(=O)N1C	-5.22

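The data file gives no further conditions (lipid, pH, time, direction or concentration), and values from different papers need not be comparable. Other peptides of the study may be missing here. Peptides that the database sets to -10, its floor, are left out.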

Values of Townsend et al. 2020, doi:10.26434/chemrxiv.13335941.v1, as listed in CycPeptMPDB.